Chains of the proteins cited; added tags and fusions are not shown. Lines headed by an entry give the natural chain unless they say otherwise; changes in a name come on top.
UniProt P21453, whole entry: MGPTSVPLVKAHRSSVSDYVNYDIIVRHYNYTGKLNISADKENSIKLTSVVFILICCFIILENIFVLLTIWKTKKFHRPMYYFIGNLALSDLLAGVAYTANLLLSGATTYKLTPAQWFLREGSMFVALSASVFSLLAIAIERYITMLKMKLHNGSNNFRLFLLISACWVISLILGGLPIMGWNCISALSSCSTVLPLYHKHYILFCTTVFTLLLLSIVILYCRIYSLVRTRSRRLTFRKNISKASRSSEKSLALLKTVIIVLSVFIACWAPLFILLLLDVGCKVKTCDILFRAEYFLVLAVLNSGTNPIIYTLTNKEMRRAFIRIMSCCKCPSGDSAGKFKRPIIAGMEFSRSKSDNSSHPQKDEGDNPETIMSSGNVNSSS
UniProt O95136: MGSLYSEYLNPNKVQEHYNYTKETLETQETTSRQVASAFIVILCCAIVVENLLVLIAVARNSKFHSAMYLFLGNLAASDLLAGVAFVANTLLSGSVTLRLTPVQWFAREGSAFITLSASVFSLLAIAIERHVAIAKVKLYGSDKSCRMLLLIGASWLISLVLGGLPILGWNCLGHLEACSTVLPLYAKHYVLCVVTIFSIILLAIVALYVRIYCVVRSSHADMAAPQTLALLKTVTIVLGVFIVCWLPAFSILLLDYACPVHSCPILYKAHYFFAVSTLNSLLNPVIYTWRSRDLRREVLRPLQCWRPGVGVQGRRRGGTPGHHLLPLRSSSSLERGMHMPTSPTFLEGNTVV
UniProt Q99500: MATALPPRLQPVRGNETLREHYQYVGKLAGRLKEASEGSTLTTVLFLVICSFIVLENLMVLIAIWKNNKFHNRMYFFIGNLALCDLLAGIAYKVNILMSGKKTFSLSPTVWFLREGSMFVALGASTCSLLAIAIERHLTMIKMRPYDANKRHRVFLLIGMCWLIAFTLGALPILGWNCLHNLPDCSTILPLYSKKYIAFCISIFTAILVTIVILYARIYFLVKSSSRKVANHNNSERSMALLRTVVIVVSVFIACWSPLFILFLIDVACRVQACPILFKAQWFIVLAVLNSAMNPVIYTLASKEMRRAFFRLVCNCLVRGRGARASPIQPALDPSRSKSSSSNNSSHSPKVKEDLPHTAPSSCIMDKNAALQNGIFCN

According to patent US8546452B2, “S1P3 receptor antagonist” (TOA Eiyo Ltd., priority 2005, dated 2013):

molecular target: T1, hS1P1 (Homo sapiens, UniProt P21453); assay: S1P receptor subtype selectivity, S1P-induced [Ca2+]i increase in CHO-K1 cells stably expressing S1P1 (Calcium3); assay type: cell-based; conditions: 10 μM; CHO-K1 stably expressing S1P1; S1P solution 100 nmol/L; Calcium3; read-out: Suppression rate at 10 μM (%) hS1P1
T1 construct: expressed in transfected cells
Procedure: (§1) The selectivity to the S1P receptor subtype was examined in the following manner. […] Furthermore, a Calcium3 (Molecular Devices, Inc.) solution prepared in HBSS (+) buffer, which is a fluorescent Ca^2+ indicator, was added, and the cells were incubated for 60 minutes at 37° C. Then, 100 μL of a test compound solution prepared to a concentration of 2×10 μmol/L was added, and the cells were incubated for 20 minutes at 37° C. […] The indicator was prepared and used according to the instruction manual.
(§2) A solution of the test compound was prepared by dissolving each of the test compounds in DMSO to a concentration of 10 mmol/L, and then diluting the solution with an HBSS (+) buffer solution to the predetermined concentration. […] The measurement values were obtained by subtracting the maximum RFU value for the blind test from the maximum RFU values for control or each test compounds. A decrease in the measurement value for the test compound relative to the control was indicated as the suppression rate (%), from which the IC50 value was calculated.

Row | inhibition at 10 µM [%] | SMILES
1 | 22.4 | CC(C)(C)C(=O)C(=NNc1ccc(Cl)cc1)Nc1cccc(F)c1 [Compound 32, 1-(4-chlorophenylhydrazono)-1-(3-fluorophenylamino)-3,3-dimethyl-2-butanone]

same assay, conditions: CHO-K1, read-out: Suppression rate at 10 μM (%) hS1P1

Row | SMILES | inhibition at 10 µM [%]
2 | CC(C)(C)C(=O)C(=NNc1ccc(Cl)cc1)Nc1ccc(Cl)cc1 [Compound 33, 1-(4-chlorophenylamino)-1-(4-chlorophenylhydrazono)-3,3-dimethyl-2-butanone] | 29.5

molecular target: T2, hS1P2 (Homo sapiens, UniProt O95136); assay: S1P receptor subtype selectivity, S1P-induced [Ca2+]i increase in CHO-K1 cells stably expressing S1P2 (Calcium3); assay type: cell-based; conditions: 10 μM; CHO-K1 stably expressing S1P2; S1P solution 100 nmol/L; Calcium3; read-out: Suppression rate at 10 μM (%) hS1P2
T2 construct: expressed in transfected cells
Procedure: as §1, §2

Row | inhibition at 10 µM [%] | SMILES
3 | -11.1 | CC(C)(C)C(=O)C(=NNc1ccc(Cl)cc1)Nc1cccc(F)c1 [Compound 32, 1-(4-chlorophenylhydrazono)-1-(3-fluorophenylamino)-3,3-dimethyl-2-butanone]

same assay, conditions: CHO-K1, read-out: Suppression rate at 10 μM (%) hS1P2

Row | SMILES | inhibition at 10 µM [%]
4 | CC(C)(C)C(=O)C(=NNc1ccc(Cl)cc1)Nc1ccc(Cl)cc1 [Compound 33, 1-(4-chlorophenylamino)-1-(4-chlorophenylhydrazono)-3,3-dimethyl-2-butanone] | 1.7

molecular target: hS1P3 (Homo sapiens, UniProt Q99500); assay: S1P receptor subtype selectivity, S1P-induced [Ca2+]i increase in CHO-K1 cells stably expressing S1P3 (Calcium3); assay type: cell-based; conditions: CHO-K1, read-out: Suppression rate at 10 μM (%) hS1P3
Procedure: as §1, §2

Row | SMILES | inhibition at 10 µM [%]
5 | CCOC(=O)C(=NNc1ccc(Cl)cc1)Nc1cccc(F)c1 [Compound 13, ethyl 1-(4-chlorophenylhydrazono)-1-(3-fluorophenylamino)acetate] | 99
6 | CCOC(=O)C(=NNc1ccc(Cl)cc1)Nc1ccccc1 [Compound 19, ethyl 1-(4-chlorophenylhydrazono)-1-(phenylamino)acetate] | 101
7 | CCOC(=O)C(=NNc1ccc(Cl)cc1)Nc1cccc(C#N)c1 [Compound 20, ethyl 1-(4-chlorophenylhydrazono)-1-(3-cyanophenylamino)acetate] | 66.5
8 | CC(C)(C)NC(=O)C(=NNc1ccc(Cl)cc1)Nc1cccc(F)c1 [Compound 28, N-tert-butyl-[1-(4-chlorophenylhydrazono)-1-(3-fluorophenylamino)]acetamide] | 79
9 | CC(C)(C)NC(=O)C(=NNc1ccc(Cl)cc1)Nc1ccc(Cl)cc1 [Compound 29, N-tert-butyl-[1-(4-chlorophenylamino)-1-(4-chlorophenylhydrazono)]acetamide] | 90.4
10 | CC(C)(C)C(=O)C(=NNc1cccc(Cl)c1)Nc1cccc(F)c1 [Compound 41, 1-(3-chlorophenylhydrazono)-1-(3-fluorophenylamino)-3,3-dimethyl-2-butanone] | 103
11 | CC(C)(C)C(=O)C(=NNc1cccc(Cl)c1)Nc1ccc(Cl)cc1 [Compound 42, 1-(4-chlorophenylamino)-1-(3-chlorophenylhydrazono)-3,3-dimethyl-2-butanone] | 93.8
12 | CC(C)(C)C(=O)C(=NNc1ccccc1)Nc1cccc(F)c1 [Compound 49, 1-(3-fluorophenylamino)-1-(phenylhydrazono)-3,3-dimethyl-2-butanone] | 96.6
13 | CC(C)(C)C(=O)C(=NNc1ccccc1)Nc1ccc(Cl)cc1 [Compound 50, 1-(4-chlorophenylamino)-1-(phenylhydrazono)-3,3-dimethyl-2-butanone] | 97.7
14 | CC(C)(C)C(=O)C(=NNc1ccccc1)Nc1ccc(Cl)c(Cl)c1 [Compound 52, 1-(3,4-dichlorophenylamino)-1-(phenylhydrazono)-3,3-dimethyl-2-butanone] | 101
15 | CC(C)(C)C(=O)C(=NNc1ccc(F)cc1)Nc1cccc(F)c1 [Compound 53, 1-(3-fluorophenylamino)-1-(4-fluorophenylhydrazono)-3,3-dimethyl-2-butanone] | 100
16 | COc1ccc(NC(=NNc2ccc(F)cc2)C(=O)C(C)(C)C)cc1 [Compound 57, 1-(4-fluorophenylhydrazono)-1-(4-methoxyphenylamino)-3,3-dimethyl-2-butanone] | 73.9
17 | Cc1ccc(NN=C(Nc2cccc(F)c2)C(=O)C(C)(C)C)cc1 [Compound 61, 1-(3-fluorophenylamino)-1-(4-methylphenylhydrazono)-3,3-dimethyl-2-butanone] | 95.5
18 | Cc1ccc(NN=C(Nc2ccc(Cl)cc2)C(=O)C(C)(C)C)cc1 [Compound 62, 1-(4-chlorophenylamino)-1-(4-methylphenylhydrazono)-3,3-dimethyl-2-butanone] | 95.5
19 | Cc1ccc(NN=C(Nc2ccc(C)cc2)C(=O)C(C)(C)C)cc1 [Compound 63, 1-(4-methylphenylamino)-1-(4-methylphenylhydrazono)-3,3-dimethyl-2-butanone] | 76.5
20 | Cc1ccc(NN=C(Nc2cc(Cl)cc(Cl)c2)C(=O)C(C)(C)C)cc1 [Compound 64, 1-(3,5-dichlorophenylamino)-1-(4-methylphenylhydrazono)-3,3-dimethyl-2-butanone] | 94.6
21 | Cc1ccc(NN=C(Nc2ccc(Cl)c(Cl)c2)C(=O)C(C)(C)C)cc1 [Compound 65, 1-(3,4-dichlorophenylamino)-1-(4-methylphenylhydrazono)-3,3-dimethyl-2-butanone] | 96.3
22 | CC(C)(C)C(=O)C(=NNc1ccc(Br)cc1)Nc1ccc(Cl)cc1 [Compound 75, 1-(4-bromophenylhydrazono)-1-(4-chlorophenylamino)-3,3-dimethyl-2-butanone] | 102
23 | CC(C)(C)C(=O)C(=NNc1ccc(Br)cc1)Nc1ccc(Cl)c(Cl)c1 [Compound 80, 1-(4-bromophenylhydrazono)-1-(3,4-dichlorophenylamino)-3,3-dimethyl-2-butanone] | 101
24 | CC(C)(C)C(=O)C(=NNc1ccc(Cl)c(Cl)c1)Nc1cccc(F)c1 [Compound 104, 1-(3,4-dichlorophenylhydrazono)-1-(3-fluorophenylamino)-3,3-dimethyl-2-butanone] | 95.9
25 | C#Cc1ccc(NN=C(Nc2cccc(Cl)c2)C(=O)C(C)(C)C)cc1 [Compound 108, 1-(3-chlorophenylamino)-1-(4-ethynylphenylhydrazono)-3,3-dimethyl-2-butanone] | 88.9
26 | CC(C)(C)CC(=O)C(=NNc1ccc(Cl)cc1)Nc1cccc(F)c1 [Compound 113, 1-(4-chlorophenylhydrazono)-1-(3-fluorophenylamino)-4,4-dimethyl-2-pentanone] | 92.5
27 | CCCCC(=O)C(=NNc1ccc(Cl)cc1)Nc1ccc(Cl)cc1 [Compound 115, 1-(4-chlorophenylamino)-1-(4-chlorophenylhydrazono)-2-hexanone] | 102
28 | C#Cc1ccc(NC(=NNc2ccc(Cl)cc2)C(=O)c2ccco2)cc1 [Compound 117, 1-(4-chlorophenylhydrazono)-1-(4-ethynylphenylamino)-2-(2-furyl)-2-ethanone] | 98.6
29 | C#Cc1ccc(NN=C(Nc2cccc(F)c2)C(=O)C(C)(C)C)cc1 [Compound 131, 1-(3-fluorophenylamino)-1-(4-ethynylphenylhydrazono)-3,3-dimethyl-2-butanone] | 81.7
30 | CC(C)(C)C(=O)C(=NNc1ccc(Cl)cc1)Nc1cccc(Cl)c1 [Compound 133, 1-(3-chlorophenylamino)-1-(4-chlorophenylhydrazono)-3,3-dimethyl-2-butanone] | 91.7
31 | CCC(CC)C(=O)C(=NNc1ccc(Cl)cc1)Nc1cccc(Cl)c1 [Compound 137, 1-(3-chlorophenylamino)-1-(4-chlorophenylhydrazono)-3-ethyl-2-pentanone] | 86
32 | CC(C)(C)CC(=O)C(=NNc1ccc(Cl)cc1)Nc1ccc(Cl)cc1 [Compound 139, 1-(4-chlorophenylamino)-1-(4-chlorophenylhydrazono)-4,4-dimethyl-2-pentanone] | 82.3
33 | CC(C)(C)CC(=O)C(=NNc1ccc(Cl)cc1)Nc1cccc(Cl)c1 [Compound 140, 1-(3-chlorophenylamino)-1-(4-chlorophenylhydrazono)-4,4-dimethyl-2-pentanone] | 91.9
